Laboratory results published in patent publication US20030171293A1, “Neuropeptide receptor and uses thereof” (Pfizer Inc., priority 2002, published 2003).

Biological target: T1, receptor MRGX2 (Homo sapiens, UniProt Q96LB1)
T1 construct: expressed in transfected cells; host or cells: host line such as HEK293 or CHO-K1, stably expressing Galpha15/Gqi-5
T1 sequence (Q96LB1 1-330): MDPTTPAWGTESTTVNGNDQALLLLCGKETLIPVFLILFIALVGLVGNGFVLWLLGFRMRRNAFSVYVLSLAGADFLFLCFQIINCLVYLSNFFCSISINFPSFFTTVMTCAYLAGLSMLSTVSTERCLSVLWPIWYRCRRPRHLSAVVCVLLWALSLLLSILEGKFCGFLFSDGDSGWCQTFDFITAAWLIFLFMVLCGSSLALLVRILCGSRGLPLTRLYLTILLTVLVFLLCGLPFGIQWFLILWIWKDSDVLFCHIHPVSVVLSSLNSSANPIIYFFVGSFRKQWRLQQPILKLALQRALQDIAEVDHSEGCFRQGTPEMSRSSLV
Assay: Functional assay measuring intracellular calcium mobilisation (FLIPR)
Assay type: cell-based
Settings: Preliminary EC50 data for receptor MRGX2; transiently transfected cells, Fluo3 calcium response

SMILES: CCCC[C@@H]1NC(=O)[C@@H](NC(C)=O)CSSC[C@@H](C(N)=O)NC(=O)CNC(=O)[C@H](Cc2c[nH]c3ccccc23)NC(=O)[C@H](CCCNC(=N)N)NC(=O)[C@@H](Cc2ccc3ccccc3c2)NC(=O)[C@H](Cc2c[nH]cn2)NC(=O)[C@H](CCCNC(=N)N)NC1=O [HS024, (Acetyl-Cys^3,Nle^4,Arg^5,D-2-Nal^7,Cys^11)-α-MSH (3-11) amide]
- EC50: 420 nM
